Like-named read-outs stand apart in the source and are kept apart here.
Tests used:
[1] = biological target: Cdk2/cyclin E (Homo sapiens, UniProt P24941); assay: Cdk2/cyclin E glutathione-sepharose capture kinase assay
[2] = tested on: HCT-116 cells; assay: Calcein AM viability assay, HCT-116
[3] = biological target: Cdc2/cyclin B (Homo sapiens, UniProt P06493); assay: Cdc2/cyclin B TCA precipitation kinase assay
[4] = biological target: Cdk4/cyclin D1 (Homo sapiens, UniProt P11802); assay: Cdk4/cyclin D1 glutathione-sepharose capture kinase assay
[5] = tested on: normal human fibroblast, IMR90; assay: Calcein AM viability assay, IMR90; conditions: read-out: IMR90 viability IC50, 72 h
[6] = biological target: Cdk2/cyclin A (Homo sapiens, UniProt P24941); assay: Cdk2/cyclin A glutathione-sepharose capture kinase assay; conditions: read-out: Cdk2/Cyclin A IC50; Table 3
[7] = tested on: adriamycin resistant cell line (ADR-res); conditions: read-out: NCI panel ADR-res IC50; 48 h, SRB
[8] = tested on: HCT-116 cells; assay: Clonogenic survival assay with HCT-116 cells
[9] = biological target: Cdk6/cyclin D2 (Homo sapiens, UniProt Q00534); assay: Cdk6/cyclin D2 glutathione-sepharose capture kinase assay; type: biochemical; conditions: read-out: Cdk6/Cyclin D2 IC50; Table 3
[10] = tested on: NCI panel of 60 cell lines
[11] = biological target: Abl (c-Abl) (Homo sapiens, UniProt P00519); assay: Abl kinase assay; type: biochemical; conditions: read-out: c-Abl IC50; Table 3
[12] = biological target: Protein kinase A (catalytic subunit) (Bos taurus, UniProt P00517); assay: Protein kinase A TCA precipitation assay; conditions: read-out: PKA IC50; Table 3
[13] = biological target: protein kinase C (mixed isozymes); assay: Protein kinase C TCA precipitation assay; conditions: read-out: PKC IC50; Table 3
[14] = read-out: Cdk2/cyclin E IC50, Table 4
[15] = read-out: HCT-116 viability IC50, non-protein adjusted, Table 4
[16] = read-out: Cdc2/cyclin B IC50, Table 4
[17] = read-out: Cdk4/cyclin D1 IC50, Table 4
[18] = read-out: Cdk2/Cyclin E IC50, Table 3
[19] = read-out: HCT-116 IC50 Viability, Calcein AM, 72 h
[20] = read-out: Cdc2/Cyclin B IC50, Table 3
[21] = read-out: Cdk4/Cyclin D IC50, Table 3
[22] = read-out: HCT-116 IC50 Protein adjusted, plus 1 mg/ml alpha acidic glycoprotein and 45 mg/ml human serum albumin
[23] = read-out: HCT-116 IC50 Clonogenic 24 h, 24 h exposure

The chains behind the UniProt entries cited, without tags or fusion partners.
UniProt P06493, whole entry: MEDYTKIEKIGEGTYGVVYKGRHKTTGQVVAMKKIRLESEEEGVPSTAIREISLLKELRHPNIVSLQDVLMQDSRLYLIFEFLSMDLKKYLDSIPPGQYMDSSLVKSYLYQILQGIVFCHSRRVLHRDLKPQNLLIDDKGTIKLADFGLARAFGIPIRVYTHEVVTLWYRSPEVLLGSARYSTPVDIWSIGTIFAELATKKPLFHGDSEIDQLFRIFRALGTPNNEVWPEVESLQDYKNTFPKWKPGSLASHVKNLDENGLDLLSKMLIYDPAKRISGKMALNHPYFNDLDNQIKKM
UniProt P11802, whole entry: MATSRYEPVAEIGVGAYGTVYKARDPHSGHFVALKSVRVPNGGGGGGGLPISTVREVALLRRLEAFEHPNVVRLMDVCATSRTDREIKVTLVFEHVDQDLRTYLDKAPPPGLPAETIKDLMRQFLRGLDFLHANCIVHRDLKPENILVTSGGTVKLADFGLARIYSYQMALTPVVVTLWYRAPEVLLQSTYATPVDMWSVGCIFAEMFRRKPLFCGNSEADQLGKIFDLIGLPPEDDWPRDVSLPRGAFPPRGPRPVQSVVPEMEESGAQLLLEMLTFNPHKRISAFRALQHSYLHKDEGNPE
UniProt Q00534, whole entry: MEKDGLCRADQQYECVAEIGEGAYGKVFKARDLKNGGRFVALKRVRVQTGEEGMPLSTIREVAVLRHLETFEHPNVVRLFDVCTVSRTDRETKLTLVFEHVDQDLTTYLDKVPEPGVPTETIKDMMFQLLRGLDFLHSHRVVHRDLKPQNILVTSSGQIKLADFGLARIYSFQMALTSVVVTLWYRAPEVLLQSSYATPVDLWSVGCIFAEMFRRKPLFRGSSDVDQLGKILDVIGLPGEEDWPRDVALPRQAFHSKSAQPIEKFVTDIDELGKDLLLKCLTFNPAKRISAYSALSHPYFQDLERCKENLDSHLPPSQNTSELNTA
UniProt P00519, whole entry: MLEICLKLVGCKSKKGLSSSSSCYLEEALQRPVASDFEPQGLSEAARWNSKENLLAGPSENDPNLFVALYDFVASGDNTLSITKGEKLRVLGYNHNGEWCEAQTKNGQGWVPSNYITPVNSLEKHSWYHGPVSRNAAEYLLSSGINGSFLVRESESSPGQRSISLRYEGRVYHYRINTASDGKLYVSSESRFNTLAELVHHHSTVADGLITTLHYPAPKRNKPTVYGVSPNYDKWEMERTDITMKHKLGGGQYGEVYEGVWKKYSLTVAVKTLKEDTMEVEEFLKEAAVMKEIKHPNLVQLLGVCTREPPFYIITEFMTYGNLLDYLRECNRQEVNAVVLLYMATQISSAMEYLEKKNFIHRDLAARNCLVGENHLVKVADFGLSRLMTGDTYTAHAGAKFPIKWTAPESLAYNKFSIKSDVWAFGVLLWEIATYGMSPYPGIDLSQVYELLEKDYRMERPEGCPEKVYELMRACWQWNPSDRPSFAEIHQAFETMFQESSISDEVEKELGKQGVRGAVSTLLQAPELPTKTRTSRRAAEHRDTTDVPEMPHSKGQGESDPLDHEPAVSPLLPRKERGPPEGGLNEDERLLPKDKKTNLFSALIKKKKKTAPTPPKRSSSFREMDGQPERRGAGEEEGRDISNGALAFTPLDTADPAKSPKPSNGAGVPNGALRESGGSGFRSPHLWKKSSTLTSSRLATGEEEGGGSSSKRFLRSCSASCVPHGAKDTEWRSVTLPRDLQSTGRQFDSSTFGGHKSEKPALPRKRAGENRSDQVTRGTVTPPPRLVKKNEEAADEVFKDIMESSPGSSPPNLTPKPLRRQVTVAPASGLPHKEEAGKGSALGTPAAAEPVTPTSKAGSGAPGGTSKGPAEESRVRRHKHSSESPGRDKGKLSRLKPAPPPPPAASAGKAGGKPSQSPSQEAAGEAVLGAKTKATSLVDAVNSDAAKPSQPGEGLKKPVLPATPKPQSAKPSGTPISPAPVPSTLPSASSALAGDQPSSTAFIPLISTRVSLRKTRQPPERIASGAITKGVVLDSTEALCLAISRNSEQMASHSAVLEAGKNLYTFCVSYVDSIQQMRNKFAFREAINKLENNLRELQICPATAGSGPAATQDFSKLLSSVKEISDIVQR
UniProt P14635, whole entry partner: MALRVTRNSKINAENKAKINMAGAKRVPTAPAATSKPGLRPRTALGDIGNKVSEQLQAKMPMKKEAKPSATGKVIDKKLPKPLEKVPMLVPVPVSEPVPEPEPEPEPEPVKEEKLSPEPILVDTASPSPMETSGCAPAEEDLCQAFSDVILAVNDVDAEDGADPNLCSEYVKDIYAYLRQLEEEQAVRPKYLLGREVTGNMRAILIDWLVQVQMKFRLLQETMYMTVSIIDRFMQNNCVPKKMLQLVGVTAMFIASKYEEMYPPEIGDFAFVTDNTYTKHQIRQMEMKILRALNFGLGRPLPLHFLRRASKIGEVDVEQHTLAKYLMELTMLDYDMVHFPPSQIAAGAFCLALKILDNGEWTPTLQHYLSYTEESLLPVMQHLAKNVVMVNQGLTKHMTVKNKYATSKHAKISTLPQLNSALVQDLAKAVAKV
UniProt P24385, whole entry partner: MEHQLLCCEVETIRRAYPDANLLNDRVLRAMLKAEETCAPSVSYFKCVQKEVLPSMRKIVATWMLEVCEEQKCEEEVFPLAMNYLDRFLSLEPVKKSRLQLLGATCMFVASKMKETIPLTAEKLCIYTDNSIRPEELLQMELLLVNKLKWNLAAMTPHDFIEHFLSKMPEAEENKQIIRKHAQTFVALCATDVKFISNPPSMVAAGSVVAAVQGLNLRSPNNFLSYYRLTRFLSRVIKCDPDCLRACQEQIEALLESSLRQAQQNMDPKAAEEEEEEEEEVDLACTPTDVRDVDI
UniProt P30279, whole entry partner: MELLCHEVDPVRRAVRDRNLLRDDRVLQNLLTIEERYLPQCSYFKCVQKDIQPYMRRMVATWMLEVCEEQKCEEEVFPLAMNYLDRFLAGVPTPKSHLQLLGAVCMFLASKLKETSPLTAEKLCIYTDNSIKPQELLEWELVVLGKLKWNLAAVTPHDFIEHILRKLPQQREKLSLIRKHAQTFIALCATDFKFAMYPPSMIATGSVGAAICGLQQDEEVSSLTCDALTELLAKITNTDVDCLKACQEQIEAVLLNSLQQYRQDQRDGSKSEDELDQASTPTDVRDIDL

| Structure (SMILES) | IC50 [1, 14] [nM] | IC50 [2, 15] [nM] | IC50 [3, 16] [nM] | IC50 [4, 17] [nM] | also measured |
| --- | --- | --- | --- | --- | --- |
| CCN1CCN(S(=O)(=O)c2cc(Cl)c(-n3nc(C(C)C)c4c(=O)[nH]c(Cc5ccc(OCCN6CCOCC6)cc5)nc43)c(Cl)c2)CC1 | < 1000 | < 10 | < 1000 | < 10000 |  |
| CC(C)c1nn(-c2c(Cl)cc(Cl)cc2Cl)c2nc(Cc3ccc(CN4CCN(C(C)C)CC4)n3C)[nH]c(=O)c12 | < 100 | < 100 | < 1000 | < 1000 |  |
| CC(C)c1nn(-c2c(Cl)cccc2Cl)c2nc(Cc3ccc(OCC(C)(C)O)cc3)[nH]c(=O)c12 | < 100 | < 100 | < 100 | < 1000 |  |
| CC(C)c1nn(-c2c(Cl)cccc2Cl)c2nc(Cc3ccc(OCCOP(=O)(O)O)cc3)[nH]c(=O)c12 | < 100 | < 100 | < 100 | < 10000 |  |
| CC(C)c1nn(-c2c(Cl)cc(S(N)(=O)=O)cc2Cl)c2nc(Cc3ccc(OCCN4CCOCC4)cc3)[nH]c(=O)c12 | < 10 | < 100 | < 10 | < 1000 |  |
| Cc1nc(Cc2nc3c(c(C(C)C)nn3-c3c(Cl)cccc3Cl)c(=O)[nH]2)cs1 | < 10 | < 100 | < 10000 | < 10000 |  |
| CC(C)c1nn(-c2c(Cl)cccc2Cl)c2nc(Cc3ccc(CN4CCN(C(C)C)CC4)c(O)c3)[nH]c(=O)c12 | < 100 | < 100 | < 1000 |  |  |
| CC(C)c1nn(-c2c(Cl)cccc2Cl)c2nc(Cc3ccc(OP(=O)(O)O)cc3)[nH]c(=O)c12 |  |  |  |  | IC50 [1, 18]: < 10 nM; IC50 [2, 19]: < 1000 nM; IC50 [3, 20]: < 100 nM; IC50 [5]: < 1000 nM; IC50 [6]: < 100 nM; IC50 [4, 21]: < 10000 nM |
| CC(C)c1nn(-c2c(Cl)cc(Cl)cc2Cl)c2nc(Cc3ccc(OCCN4CCOCC4)cc3)[nH]c(=O)c12 |  |  |  |  | IC50 [1, 18]: < 100 nM; IC50 [7]: < 1000 nM; IC50 [2, 22]: < 1000 nM; IC50 [2, 19]: < 100 nM; IC50 [3, 20]: < 1000 nM; IC50 [8, 23]: < 1000 nM; IC50 ([8]; read-out: HCT-116 IC50 Clonogenic 48 h, 48 h exposure): < 100 nM; IC50 ([8]; read-out: HCT-116 IC50 Clonogenic 72 h, 72 h exposure): < 100 nM; IC50 [9]: < 1000 nM; IC50 [5]: < 100 nM; IC50 [6]: < 100 nM; IC50 [4, 21]: < 1000 nM; IC50 [10]: < 100 nM |
| CC(C)c1nn(-c2c(Cl)cccc2Cl)c2nc(Cc3ccc(OCCOC(=O)[C@@H](N)C(C)C)cc3)[nH]c(=O)c12 | < 100 | < 100 | < 1000 | < 10000 |  |
| CCN(CCO)S(=O)(=O)c1cc(Cl)c(-n2nc(C(C)C)c3c(=O)[nH]c(Cc4ccc(OCCN5CCOCC5)cc4)nc32)c(Cl)c1 | < 100 | < 100 | < 100 | < 10000 |  |
| CC(C)c1nn(-c2c(Cl)cccc2Cl)c2nc(Cc3ccc(O)cc3)[nH]c(=O)c12 | < 10 | < 100 | < 100 | < 100 |  |
| CC(C)c1nn(-c2c(Cl)cc(Cl)cc2Cl)c2nc(Cc3ccc(CN4CCCC4)n3C)[nH]c(=O)c12 | < 100 | < 100 | < 1000 | < 1000 |  |
| CC(C)c1nn(-c2c(Cl)cccc2Cl)c2nc(Cc3ccc(NS(=O)(=O)CCCN4CCOCC4)cc3)[nH]c(=O)c12 | < 100 | < 100 | < 1000 | < 1000 |  |
| CC(C)c1nn(-c2c(Cl)cccc2Cl)c2nc(Cc3ccc(O)c(CN4CCN(C(C)C)CC4)c3)[nH]c(=O)c12 |  |  |  |  | IC50 [1, 18]: < 100 nM; IC50 [7]: < 100 nM; IC50 [2, 22]: < 1000 nM; IC50 [2, 19]: < 100 nM; IC50 [11]: > 10 µM; IC50 [3, 20]: < 1000 nM; IC50 [8, 23]: < 1000 nM; IC50 [12]: > 10 µM; IC50 [13]: > 10 µM; IC50 [5]: < 100 nM; IC50 [6]: < 100 nM; IC50 [4, 21]: < 1000 nM; IC50 [10]: < 100 nM |
| CC(C)c1nn(-c2c(Cl)cccc2Cl)c2nc(Cc3ccc(OCCN4CCOCC4)cc3)[nH]c(=O)c12 | < 10 | < 100 | < 1000 | < 10000 |  |
| CC(C)c1nn(-c2c(Cl)cccc2Cl)c2nc(Cc3ccc(OCCO)cc3)[nH]c(=O)c12 | < 100 | < 100 | < 100 | < 1000 |  |
| CC(C)c1nn(-c2c(Cl)cc(Cl)cc2Cl)c2nc(Cc3ccc(CNC(CO)CO)n3C)[nH]c(=O)c12 | < 10 | < 100 |  |  |  |
| CC(C)c1nn(-c2c(Cl)cccc2Cl)c2nc(Cc3ccc(OCCN4CCOCC4)c(O)c3)[nH]c(=O)c12 | < 100 | < 100 | < 1000 | < 100 |  |
| CC(C)c1nn(-c2c(Cl)cccc2Cl)c2nc(Cc3ccc(O)c(CN4CCOCC4)c3)[nH]c(=O)c12 | < 100 | < 100 | < 1000 | < 10000 |  |
| CC(C)c1nn(-c2c(Cl)cccc2Cl)c2nc(Cc3ccc(C(=O)NOCCN4CCOCC4)cc3)[nH]c(=O)c12 | < 100 | < 100 | < 1000 | < 1000 |  |
| CC(C)c1nn(-c2c(Cl)cccc2Cl)c2nc(Cc3ccc(CN4CCCC4)c(O)c3)[nH]c(=O)c12 | < 100 | < 100 |  |  |  |
| CC(C)c1nn(-c2c(Cl)cc(Cl)cc2Cl)c2nc(Cc3ccc(NS(=O)(=O)CCCN4CCCC4)cc3)[nH]c(=O)c12 | < 100 | < 100 | < 1000 | < 1000 |  |
| CC(C)c1nn(-c2c(Cl)cc(Cl)cc2Cl)c2nc(Cc3ccc(NS(=O)(=O)CCCN4CCN(C(C)C)CC4)cc3)[nH]c(=O)c12 | < 100 | < 100 | < 1000 | < 1000 |  |
| CC(C)c1nn(-c2c(Cl)cc(Cl)cc2Cl)c2nc(Cc3ccc(OCCN4CCN(C(C)C)CC4)cc3)[nH]c(=O)c12 | < 10 | < 100 | < 100 | < 1000 |  |
| CC(C)c1nn(-c2c(Cl)cc(Cl)cc2Cl)c2nc(Cc3ccc(OCCO)cc3)[nH]c(=O)c12 | < 100 | < 100 | < 100 | < 1000 |  |
| COCCOc1ccc(Cc2nc3c(c(C(C)C)nn3-c3c(Cl)cccc3Cl)c(=O)[nH]2)cc1 | < 100 | < 100 | < 100 | < 10000 |  |
| COc1ccc(Cc2nc3c(c(C(C)C)nn3-c3c(Cl)cccc3Cl)c(=O)[nH]2)cc1 | < 10 | < 100 | < 100 |  |  |
| CC(C)c1nn(-c2c(Cl)cc(Cl)cc2Cl)c2nc(Cc3ccc(OCC(C)(C)O)cc3)[nH]c(=O)c12 | < 100 | < 100 | < 100 | < 1000 |  |
| CC(C)c1nn(-c2c(Cl)cc(Cl)cc2Cl)c2nc(Cc3ccc(NS(=O)(=O)CCCN4CCCCC4)cc3)[nH]c(=O)c12 | < 100 | < 100 | < 1000 |  |  |
